We go through one compound from PubChem BioAssay AID686 (PCMD, 2007).

This is a selection; strong and weak results do not stand in their true shares. The source made the active and inactive calls.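 Rule for the calls: active = a full or partial loss of lipid-probe fluorescence in the fish gall bladder, intestine or both, judged by eye; inactive = no fluorescence loss, or compound toxic to the fish.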

This assay is described as follows: inhibitors of larval lipid processing in zebrafish, primary screen, whole organism, PED6 fluorescence, gall bladder and intestine (AID 686).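 Note: larvae 5 to 7 days old with five fish per well; signal comes from phospholipase A2 cleavage of quenched PED6 carried via bile.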 The note with it: Zebrafish larvae PED6 lipid processing, fluorescence scoring; screened at 20 µM (by protocol). A digest of the protocol: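 System: live zebrafish larvae aged 5-7 days, whole organism; measure: graded gall bladder and intestinal fluorescence inhibition per well; incubation: overnight exposure; reagent: ingested quenched lipid PED6 at 100 nM; signal: By-eye fluorescence microscopy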
For `CCN(CC)CC(O)COC(=O)C(O)(c1ccccc1)C1CCCCC1` (stereo unspecified), the result was inactive.
